Assay results reported in patent US20170260285A1, “METHODS FOR TREATING CANCER” (UNIVERSITY OF IOWA RESEARCH FOUNDATION, priority 2014, published 2017).

What was measured:
HNSCC tumor cell lines = conditions: previous studies (ref. 10); cited from earlier work
SQ20B xenograft tumors = assay: HNSCC xenograft tumor growth in nude mice; assay type: in vivo, athymic nu/nu mice; conditions: EGFRI combined with IL-1α blockade (neutralizing IL-1α antibody)
Protocol: Clonogenic survival was determined as previously described (17). Individual assays were performed with multiple dilutions with at least four cloning dishes per data point, repeated in at least 3 separate experiments. Tumor cell implantation: Female 4-5 week old athymic-nu/nu nude mice were purchased from Harlan Laboratories (Indianapolis, IN). Mice were housed in a pathogen-free barrier room in the Animal Care Facility at the University of Iowa and handled using aseptic procedures. All procedures were approved by the IACUC committee of the University of Iowa and conformed to the guidelines established by the NIH. […]
(§1) Mice started drug treatment 1 week after tumor inoculation. […] Mice were evaluated daily and tumor measurements taken three times per week using Vernier calipers. Tumor volumes were calculated using the formula: tumor volume=(length×width^2)/2 where the length was the longest dimension, and width was the dimension perpendicular to length. […]
as §1

## cetuximab
HNSCC tumor cell lines
  IL-6 expression/secretion in HNSCC cell lines treated with EGFRIs: significant upregulation
SQ20B xenograft tumors
  anti-tumor activity in vivo with IL-1α blockade: significantly increased
